Data taken from patent US20260273047A1, “COMPOSITIONS AND METHODS FOR AMELIORATING ADVERSE EFFECTS OF THERAPIES” (MDX Management LLC, priority 2023, published 2026).

How the values were obtained:
MC38 = MC38 tumors treated intratumorally with TPI-1 and T cell activating agents; assay type: in vivo, C57Bl/6 mice
Description: Inhibition of SHP-1 was tested in vivo for tumor therapies. In short, tumor cells (i.e., MC38) were engrafted into C57Bl/6 mice and the mice administered (i) TPI-1, (ii) αPD-1 antibody, (iii) IL-2, (iv) anti-CD3/CD28 antibodies, (v) TPI-1+αPD-1 antibody, (vi) TPI-1+IL-2, (vii) TPI-1+anti-CD3/CD28 antibodies, or (viii) TPI-1+IL-2+prophylactic anti-TNFα/anti-IL-6 antibodies. Tumor growth was measured over time until the tumors reached 2.0 cm in diameters. […] IL-2 was administered at 30,000 IU by intratumoral injection every 3 days. Anti-PD-1 antibody was 205[…] 50 μg by intratumoral injection every 3 days. Anti-CD3 antibody and anti-CD28 antibody were each 205[…] 50 μg by intratumoral injection in a single dose.

[1] = system: MC38 colorectal carcinoma; assay: Single and multi-lesion MC38 colorectal carcinoma model; assay type: in vivo, C57Bl/6 mice; conditions: KX147.AB&C 3 days then KX147.AB daily + IL-2 + anti-PD-1 + anti-TNFα; controls without KX147.AB&C
Description: A second cancer murine model was tested to confirm and expand upon the results obtained in Example 1 above. […] One day before KX147.AB&C combination treatment was to begin and again on Day 5, mice were administered either an anti-TNFα antibody at 100 μg or vehicle (i.p.). Then on each of Days 1-3, mice were administered KX147.AB&C combination treatment (s.c.). […] KX147.AB&C treatment comprised: A: s.c. TPI-1 at 1 mg/kg; B: s.c. PolyI:C+R848, each at 20 μg; and C: s.c. Dasatinib at 2 mg/kg. KX147.AB treatment comprised: A: s.c. TPI-1 at 1 mg/kg; and B: s.c. PolyI:C+R848, each at 20 μg. Simultaneous administration of daily IL-2 administration at 10000 IU (i.p.) and anti-PD-1 administration every three days at 100 μg (i.p.) also occurred starting on Day 1 to promote T cell immunity.

IL-2: cytokine given to promote T cell immunity
effect on established tumors, such as MC38, KPC, or LLC (MC38; agent alone): only minor effects
MC38 tumor growth / resistance (MC38; intratumoral, agent without SHP-1 inhibitor, or TPI-1 alone (1 mg/kg every 2 days)): strong resistance
MC38 tumor burden [1]: did not display a reduction in tumor burden
